Drawing on patent US20030095958A1, “Inhibitors of bace” (priority 2001, published 2003), this text covers Ki for one molecule.

The chains behind the UniProt entries cited, without tags or fusion partners. Residues count along the entry.
UniProt P56817, 46-501 limits assumed: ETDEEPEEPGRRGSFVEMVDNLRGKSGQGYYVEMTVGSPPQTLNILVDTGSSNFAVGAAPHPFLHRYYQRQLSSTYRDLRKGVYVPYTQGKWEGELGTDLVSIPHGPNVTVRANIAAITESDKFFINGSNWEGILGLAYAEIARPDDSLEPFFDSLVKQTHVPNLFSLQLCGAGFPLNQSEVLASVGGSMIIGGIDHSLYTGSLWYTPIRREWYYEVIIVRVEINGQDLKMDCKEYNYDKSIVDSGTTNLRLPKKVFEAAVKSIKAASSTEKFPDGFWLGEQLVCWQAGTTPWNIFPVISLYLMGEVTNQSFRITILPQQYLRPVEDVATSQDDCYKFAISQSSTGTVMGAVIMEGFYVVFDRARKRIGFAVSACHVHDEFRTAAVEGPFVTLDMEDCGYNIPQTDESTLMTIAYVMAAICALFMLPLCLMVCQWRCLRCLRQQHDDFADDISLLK

Structures are written as SMILES.

This assay concerns the target BACE (Homo sapiens, UniProt P56817). The assay can be described thus: Ki Determination for the Inhibition of BACE (FS-1 peptide fluorescence cleavage assay). Particulars: apparent Ki; 50 nM BACE, 10 μM FS-1 substrate, 0.1M sodium acetate pH 4.5. How it is done:
Compounds were tested against BACE activity using the following modifications of the method described in J. Ermolieff et al. (2000) Biochemistry 39(51):16263.
All compound evaluations were performed in 0.1M sodium acetate (buffer), pH, 4.5, 10 μM substrate (FS-1 peptide as described in the reference above; this is commercially available), varying concentrations of the test compound or control (DMSO to yeild 2% vol/vol), and 50 nM BACE. The assay volume is 100 μL.
Two microliters of the test compound dissolved in DMSO are added to each well in a 96-well microtiter plate. Seventy eight microliters of BACE are mixed with buffer and added to each well then incubated at room temperature for 15 minutes. A stock solution of 50 μM FS-1 substrate was prepared by addition of an aliquot of FS-1 substrate which was dissolved in DMSO to the buffer and mixed well. The reaction is initiated by addition of 20 μL of the FS-1 mix to the remaining, preincubated assay components. The cleavage reaction of substrate to product is measured using a Molecular Devices fluorescence plate reader with the excitation and emission filter pairs of 355 nm and 495 nm, respectively. Apparent Ki values are determined by fitting the data to the integrated equation for competitive tight binding inhibition.

As for `CC(NC(=O)C1CNCCC1c1ccc(-c2ccccc2)cc1)c1ccc2ccccc2c1` (single isomer, unassigned), the Ki lay in the range of 3 to 30 µM.
